In patent publication US9611277B2 (Janssen Pharmaceutica NV, priority 2013, dated 2017):
pKi: −log10 of the molar value.

Amino acid sequences for entries named in this document (tags omitted).
UniProt O43614, whole entry: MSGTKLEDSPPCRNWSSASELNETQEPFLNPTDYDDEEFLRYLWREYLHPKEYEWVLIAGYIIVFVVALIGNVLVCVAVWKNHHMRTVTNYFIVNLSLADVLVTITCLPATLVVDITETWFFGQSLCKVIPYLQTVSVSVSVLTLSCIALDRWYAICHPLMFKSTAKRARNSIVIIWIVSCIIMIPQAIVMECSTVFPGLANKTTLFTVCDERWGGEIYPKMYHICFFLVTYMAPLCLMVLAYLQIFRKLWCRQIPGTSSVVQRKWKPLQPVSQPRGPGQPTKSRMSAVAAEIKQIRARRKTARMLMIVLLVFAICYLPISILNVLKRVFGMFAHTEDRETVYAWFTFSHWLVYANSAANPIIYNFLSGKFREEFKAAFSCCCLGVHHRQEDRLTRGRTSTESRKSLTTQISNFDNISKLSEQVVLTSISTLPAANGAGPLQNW

Assays:
human orexin 1 receptor = human orexin 1 receptor (Homo sapiens, UniProt O43613); test: Human orexin 1 receptor radioligand binding; conditions: read-out: hOX1 Ki
Method: (§1) Data are analyzed using pc-Sandy macro and graphed on Graphpad Prism 5. For analysis, each concentration point is averaged from triplicate values and the averaged values are plotted on Graphpad Prism. The IC50 was determined by applying the following equation (GraphPad Prism 5.0, SanDiego) for one site competition where X=log (concentration) and Y=specific binding. Top denotes the total [^3H]-(1-(5-(2-fluoro-phenyl)-2-methyl-thiazol-4-yl)-1-((S)-2-(5-phenyl-(1,3,4)oxadiazol-2-ylmethyl)-pyrrolidin-1-yl)-methanone) binding, bottom denotes the nonspecific [^3H]-(1-(5-(2-fluoro-phenyl)-2-methyl-thiazol-4-yl)-1-((S)-2-(5-phenyl-(1,3,4)oxadiazol-2-ylmethyl)-pyrrolidin-1-yl)-methanone) binding. Graphpad Prism calculates Ki value from IC50 and the pre-determined Kd values for [^3H]-(1-(5-(2-fluoro-phenyl)-2-methyl-thiazol-4-yl)-1-((S)-2-(5-phenyl-(1,3,4)oxadiazol-2-ylmethyl)-pyrrolidin-1-yl)-methanone) and [3H]-EMPA. The Ki for each compound is then uploaded into 3DX. Each run comprises individual compounds in triplicate. […]
(§2) After centrifugation (2K×G, 5 min at 4° C.), the supernatant was aspirated and the pellets frozen and stored at −80° C. […] Total and nonspecific binding was determined in the absence and presence of 10 μM almorexant. […] Plates were dried in 55° C. oven for 60 min, scintillation fluid was added, and the radioactivity was counted on a Topcount (Packard).

rat orexin 1 receptor = rat orexin 1 receptor (Rattus norvegicus, UniProt P56718); test: Rat orexin 1 receptor radioligand binding; conditions: read-out: rOX1 Ki
Method: as §1, §2

human orexin 2 receptor = human orexin 2 receptor (Homo sapiens (Human), UniProt O43614); test: Human orexin 2 receptor radioligand binding; conditions: read-out: hOX2 Ki
Method: Data are analyzed using pc-Sandy macro and graphed on Graphpad Prism 5. For analysis, each concentration point is averaged from triplicate values and the averaged values are plotted on Graphpad Prism. The IC50 was determined by applying the following equation (GraphPad Prism 5.0, SanDiego) for one site competition where X=log (concentration) and Y=specific binding. Top denotes the total [^3H]-(1-(5-(2-fluoro-phenyl)-2-methyl-thiazol-4-yl)-1-((S)-2-(5-phenyl-(1,3,4)oxadiazol-2-ylmethyl)-pyrrolidin-1-yl)-methanone) binding, bottom denotes the nonspecific [^3H]-(1-(5-(2-fluoro-phenyl)-2-methyl-thiazol-4-yl)-1-((S)-2-(5-phenyl-(1,3,4)oxadiazol-2-ylmethyl)-pyrrolidin-1-yl)-methanone) binding. Graphpad Prism calculates Ki value from IC50 and the pre-determined Kd values for [^3H]-(1-(5-(2-fluoro-phenyl)-2-methyl-thiazol-4-yl)-1-((S)-2-(5-phenyl-(1,3,4)oxadiazol-2-ylmethyl)-pyrrolidin-1-yl)-methanone) and [3H]-EMPA. The Ki for each compound is then uploaded into 3DX. Each run comprises individual compounds in triplicate. The data in Table 1 and Table 2 represent averages from between 2-20 runs
Human Orexin 2 Receptor Radioligand Binding Studies […]

“(6-methyl-3-(2H-1,2,3-triazol-2-yl)pyridin-2-yl)((1S,4R,6R)-6-((5-(trifluoromethyl)pyrazin-2-yl)amino)-2-azabicyclo[2.2.2]octan-2-yl)methanone [Example 83]” was tested. Which pKi (human orexin 1 receptor) did it give?
The pKi was 8.30.

And the pKi (rat orexin 1 receptor)?
The pKi was 8.10.

And the pKi (human orexin 2 receptor)?
The pKi was 6.54.
